The record followed here is US20130143840A1, “HEPARAN SULFATE REPLACEMENT THERAPY” (priority 2010, published 2013).

For this data set, the system named is isolated BALB/c islet beta cells. The data set can be described thus: Culture-induced death of isolated islet beta cells, Sytox green uptake by flow cytometry. The conditions noted are these: 50 μg/ml, 2 days culture, untreated control 25-30% viability. The data set is classed as cell-based, mouse. From the text:
Pancreatic islets were isolated from non-diabetic BALB/c mice and dissociated into a single cell suspension (>90% beta cells) by Dispase digestion. Following 2 days culture in standard tissue culture medium 62% of the beta cells were dead, based on uptake of the fluorescent DNA binding dye, Sytox green (FIG. 4, upper panels). […] In the presence of heparin the highly viable Calcein^+, PI^−population of beta cells was increased from 25% to 86%, the dead population. (Calcein^−, PI^+) reduced from 18% to 1% and the apoptotic population (Calcein^+, PI^+) improved from 52% to 6%. […] Table 1 provides a statistical analysis of the data showing that heparin, highly sulfated heparan sulfate (HS^hi) and PI-88 can protect mouse beta cells from culture-induced cell death.
The impact of heparin treatment on beta cell viability was also independent of the source of heparin (FIG. 8a) and, based on viable cell numbers, was not observed after 1 h but did occur after continuous culture with heparin for 1-2 days (FIG. 8b).
A general note: Flow cytometry measures light scatter and fluorescence of single cells or particles in a stream.

Take Bis-lactobionic acid amide (C12 link): the “Viability (%)” value turned out to be 64%.
